Drawing on the NIST ThermoML archive (doi:10.1016/j.jct.2016.07.017), this text covers activity coefficient for one molecule.

The series is described as follows: activity coefficient (dimensionless); of the first substance listed, at infinite dilution; xn = mol fraction of the nth substance listed. The settings on record: 101.33 kPa, Liquid, Chromatography, x1 = 0.

Numbers after ± are expanded uncertainties.

On to `CCCCOCCCC` [dibutyl ether] + CC[N+](C)(CC)CCOC.O=S(=O)([N-]S(=O)(=O)C(F)(F)F)C(F)(F)F, for which the activity coefficient (318.15 K) is 15.1 ± 1.3; the activity coefficient (328.15 K) was found to be 14.2 ± 1.2; the activity coefficient (338.15 K) turned out to be 13.4 ± 1.2; the activity coefficient (348.15 K) came to 12.6 ± 1.1; the activity coefficient (358.15 K) came out at 12 ± 1.
